Measurements as given in article PMC9423820, “Melittin-derived peptides exhibit variations in cytotoxicity and antioxidant, anti-inflammatory and allergenic activities” (Animal Cells and Systems, 2022).

System: HeLa cells
Assay: MTS cell viability assay (CellTiter 96 Aqueous One), HeLa
Assay type: cell-based, human
Conditions: 2.5 μM, 24 h, n = 3
From the text: Human pulmonary bronchial epithelial BEAS-2B, human epithelial cervix carcinoma HeLa, murine macrophage RAW 264.7, and rat basophilic leukemia mast RBL-2H3 cells were purchased from American Type Culture Collection (ATCC, VA, USA). BEAS-2B cells were maintained in bronchial epithelial basal medium (BEBM; Lonza, Basel, Switzerland). HeLa, RAW 264.7, and RBL-2H3 cells were maintained in DMEM supplemented with 10% heat-inactivated fetal bovine serum (Welgene, Gyeongsangbuk-do, Korea) and 1% penicillin and streptomycin (Welgene) at 37 °C in a humidified atmosphere of 5% CO2. Melittin and its derived peptides (Figure 1A) were synthesized by Peptron, Inc. (Daejeon, Korea).
The effect of melittin and melittin-derived peptides on cell viability was evaluated using the CellTiter 96^R Aqueous One Solution Cell Proliferation Assay (Promega, Madison, WI, USA), according to the manufacturer’s instructions (Cambronero-Urena et al. [2021]). BEAS-2B and HeLa cells were seeded (3,000 cells/well) in 96-well plates and incubated for 24 h. […] Thereafter, 20 μL of MTS reagent was added, and absorbance was measured at 490 nm using a microplate reader (Molecular Devices EMax Plus). The formula used to calculate the cell viability is as follows: Cell viability (%)={(A Sample−A [Blank]) / (A [Control])−A [Blank])}×100, Where A is the absorbance for a given wavelength.

Structure (SMILES): CC[C@H](C)[C@H](NC(=O)CN)C(=O)NCC(=O)N[C@@H](C)C(=O)N[C@H](C(=O)N[C@@H](CC(C)C)C(=O)N[C@@H](CCCCN)C(=O)N[C@H](C(=O)N[C@@H](CC(C)C)C(=O)N[C@H](C(=O)N[C@H](C(=O)NCC(=O)N[C@@H](CC(C)C)C(=O)N1CCC[C@H]1C(=O)N[C@@H](C)C(=O)N[C@@H](CC(C)C)C(=O)N[C@H](C(=O)N[C@@H](CO)C(=O)N[C@@H](Cc1c[nH]c2ccccc12)C(=O)N[C@H](C(=O)N[C@@H](CCCCN)C(=O)N[C@@H](CCCNC(=N)N)C(=O)N[C@@H](CCCCN)C(=O)N[C@@H](CCCNC(=N)N)C(=O)N[C@@H](CCC(N)=O)C(=O)N[C@@H](CCC(N)=O)C(N)=O)[C@@H](C)CC)[C@@H](C)CC)[C@@H](C)O)[C@@H](C)O)C(C)C)C(C)C [Melittin]
- cellular activity (cell viability): 60%
